# Data taken from US20070254882A1, “Sulfamide Derivatives and Pharmaceutical Composition for Upregulation of Lipid Metabolism Comprising Same” (CRYSTAL GENOMICS, INC., priority 2004, published 2007).
# Amino acid sequences for entries named in this document (tags omitted). Residues count along the entry.
# UniProt Q07869, 239-466 limits assumed: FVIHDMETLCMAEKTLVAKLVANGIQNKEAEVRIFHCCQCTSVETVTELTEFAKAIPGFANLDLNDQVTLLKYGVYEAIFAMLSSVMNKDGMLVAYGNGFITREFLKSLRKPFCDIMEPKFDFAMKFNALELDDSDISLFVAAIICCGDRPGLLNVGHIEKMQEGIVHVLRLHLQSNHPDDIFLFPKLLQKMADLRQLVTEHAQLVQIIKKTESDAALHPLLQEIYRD
# UniProt Q07869, whole entry: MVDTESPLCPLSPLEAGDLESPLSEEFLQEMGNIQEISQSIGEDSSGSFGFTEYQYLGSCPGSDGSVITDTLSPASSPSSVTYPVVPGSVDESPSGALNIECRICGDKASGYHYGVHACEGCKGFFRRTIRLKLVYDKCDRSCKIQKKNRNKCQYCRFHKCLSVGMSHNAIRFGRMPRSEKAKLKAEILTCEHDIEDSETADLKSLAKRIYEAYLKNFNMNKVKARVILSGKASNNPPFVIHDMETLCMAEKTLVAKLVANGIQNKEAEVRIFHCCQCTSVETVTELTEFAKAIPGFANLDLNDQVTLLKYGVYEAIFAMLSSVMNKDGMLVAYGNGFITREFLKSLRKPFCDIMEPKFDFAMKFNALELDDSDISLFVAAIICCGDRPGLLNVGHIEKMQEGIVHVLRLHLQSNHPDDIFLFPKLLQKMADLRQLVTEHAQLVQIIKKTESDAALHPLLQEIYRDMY
# UniProt P28702, whole entry partner: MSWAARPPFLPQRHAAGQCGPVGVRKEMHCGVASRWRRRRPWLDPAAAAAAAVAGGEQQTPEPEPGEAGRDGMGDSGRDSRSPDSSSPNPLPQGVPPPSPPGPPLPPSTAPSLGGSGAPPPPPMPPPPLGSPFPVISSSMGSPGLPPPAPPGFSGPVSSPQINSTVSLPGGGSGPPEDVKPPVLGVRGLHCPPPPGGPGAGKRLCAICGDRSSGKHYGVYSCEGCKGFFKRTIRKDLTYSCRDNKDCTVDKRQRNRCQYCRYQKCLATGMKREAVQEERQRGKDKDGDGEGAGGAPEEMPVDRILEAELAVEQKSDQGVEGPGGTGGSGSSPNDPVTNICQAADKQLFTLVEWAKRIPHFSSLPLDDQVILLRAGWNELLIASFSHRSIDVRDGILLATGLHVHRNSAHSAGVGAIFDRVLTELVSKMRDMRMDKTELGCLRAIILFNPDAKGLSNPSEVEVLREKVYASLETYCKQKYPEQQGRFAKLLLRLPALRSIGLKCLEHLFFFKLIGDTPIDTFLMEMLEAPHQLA
# Tests used:
# [1] = biological target: T1, human PPAR α (Homo sapiens, UniProt Q07869); assay: Exogeneous PPAR α agonist assay (GAL4 DNA binding domain/PPAR α ligand binding domain, luciferase) in 293T cells; parameters: Activity at 25 μM Step 1 293T cell: scale not given here
# Experimental: (§1) Step 1) Exogeneous PPAR α Agonist Assay
# (§2) Cross-activation assay of the compounds of Examples 1 to 134 against human PPAR α was carried out using a DNA construct of PPAR α including its ligand binding domain and GAL4 DNA binding domain (Sher et al., Biochemistry 32, 5598-5604, 1993) to analyze whether any of the compounds binds to the ligand binding domain of PPAR α expressed by the construct to affect the PPAR α activity. When the GAL4 DNA binding domainm which is fused with PPAR α ligand binding domain, binds to UAS (upstream activation sequence) of firefly-luciferase, the luciferase is expressed. Therefore, the effect of each of the compounds of Examples on PPAR α activation can be evaluated by analyzing the activation of luciferase.
# (§3) Specifically, 2×10^4 of HepG2 (ATCC HB-8065) or 293T cells (ATCC CRL-1573) were aliquotted into each well of a 96-well plate and cultured for overnight at 37° C. in a CO2 incubator (culture condition: DMEM, 10% FBS and 1% antibiotics).
# (§4) The transformation of PPAR α DNA was traced as follows. […] The luminescence intensities of F-luciferase and R-luciferase were measured with MicroLumat Plus (Berthord Technology).
# [2] = biological target: T1, human PPAR α; assay: Exogeneous PPAR α agonist assay (GAL4 DNA binding domain/PPAR α ligand binding domain, luciferase) in HepG2 cells; details: read-out: EC50 (μM) Step 1 HepG2 cell, concentration at which activity increased by 50% over control
# Experimental: as §1, §2, §3, §4
# [3] = biological target: full length human PPAR α (Homo sapiens, UniProt Q07869); assay: Endogeneous PPAR α agonist assay (full length human PPAR α, RXR, PPRE luciferase) in 293T cells; details: read-out: EC50 (μM) Step 2 Endogenous gene activity, 48 hours
# From the text: Step 2) Endogeneous PPAR α Agonist Assay
# The procedure of Step 1 was repeated except for using a firefly-luciferase DNA construct containing Renilla-luciferase construct, full length human PPAR α, RXR (retinoid X receptor) and PPRE (peroxisome proliferator-responsive element) (Sher et al., Biochemistry 32, 5598-5604, 1993; and Fleischhauer et al., Hum Genet 90, 505-510, 1993) to transform 293T cells, to conduct endogenous PPAR CL agonist assay. Each of the compounds of Examples was used in such a treatment which lasted for 48 hours, and the luciferase activity of the resulting heterodimer, a R/R (endogenous binding partner of PPAR) bound to a full length PPAR CL with the compounds, was measured in accordance with the same method of Step 1.
smiles,measurement,setting,value
Cc1oc(-c2ccc(C(F)(F)F)cc2)nc1COc1cccc(CN(CC(=O)O)S(=O)(=O)NC(C)(C)C)c1,Activity at 25 μM Step 1 293T cell,"[1]; 25 μM compound, 48 hours, luciferase activity increase relative to the control",2
same,EC50,"[1]; read-out: EC50 (μM) Step 1 293T cell, concentration at which activity increased by 50% over control",0.2 µM
same,EC50,[2],1 µM
same,EC50,[3],25 µM
